Among the data in patent publication US4935362A, “BMY-28121, a new antitumor antibiotic” (Bristol-Myers Company, priority 1987, dated 1990) are MIC values, retold here.

≈ marks a conversion by molar mass, not a printed value.

What all share (format): cell-based
Assay [1] concerns Staphylococcus epidermidis A22152. Particulars: nutrient agar, 10^4 CFU/ml.
In assay [2] the test system is Strpetococcus faecalis A9612. Particulars: nutrient agar, 10^4 CFU/ml.
For assay [3], the system named is Klebsiella pnuemonia D-11. Particulars: D11, nutrient agar, 10^4 CFU/ml.
In a further assay the test system is Proteus mirabilis A9554. To be noted: nutrient agar, 10^4 CFU/ml.
Assay [4] deals with Morganella morganii A9553. To be noted: nutrient agar, 10^4 CFU/ml.
Assay [5] concerns Pseudomonas aeruginosa A9930. To be noted: nutrient agar, 10^4 CFU/ml.

On to `CC1(C)S[C@@H]2[C@H](NC(=O)[C@H](N)c3ccccc3)C(=O)N2[C@H]1C(=O)O` [Ampicillin, reference compound], for which the MIC in assay [1] was 0.4 µg/mL (≈ 1.14 µM); in assay [2] it was 0.4 µg/mL (≈ 1.14 µM); in assay [3], 0.8 µg/mL (≈ 2.29 µM); in the assay with Proteus mirabilis A9554 it was 0.4 µg/mL (≈ 1.14 µM); in assay [4], more than 100 µg/mL; in assay [5], more than 100 µg/mL.

For orientation: MIC means the lowest concentration that inhibits growth of the organism. Read a low MIC as greater potency.
